The experiment deals with T1, recombinant human MNL phosphodiesterase PDE IV B (Homo sapiens, UniProt Q07343).
T1 construct: made in house
Kind of experiment: Inhibition of recombinant human mononuclear lymphocyte (MNL) phosphodiesterase type IV B produced in insect cells with a baculovirus vector. It is filed as biochemical. The note with it: 3H-cAMP 0.8 μM, 10 minutes, 37° C., pH 8, DMSO 1%. How it is done:
Example C.1: Inhibition of Recombinant Human Mononuclear Lymphocyte (MNL) Phosphodiesterase Type IV B Produced in Insect Cells with a Baculovirus Vector
The alleviating and/or curing effect of the instant compounds on allergic and atopic diseases was assessed by an in vitro assay system to detect an inhibiting effect on the recombinant human MNL phosphodiesterase type IV B.
Seventy-two hours after infection with recombinant baculovirus, the insect cells were harvested and pelleted at 500 g for 5 minutes. The cells were lysed in 10 ml lysis-buffer consisting of 20 mM Tris, 10 mM EGTA, 2 mM Na2 EDTA, 1% Triton-X-100, 1 mM Na3 VO4, 10 mM NaF, 2 μg/ml of leupeptine, pepstatine and aprotinine, 0.3 μg/ml benzamidine and 100 μg/ml TPCK pH 7.5. After 5 minutes on ice, solubilized cells were centrifuged at 4000 rpm for 15 minutes at 4° C. The resulting supernatant was filtered through a 0.45 μm filter (Millipore) and brought to TBS buffer (50 mM Tris, 150 mM NaCl pH 7.4).
After washing the column with equilibration buffer, PDE IV was eluted in 1.5 ml fractions containing 37.5 μl 1M Tris pH 8. The fractions were dialyzed overnight against 20 mM Tris, 2 mM Na2 EDTA and 400 mM NaCl pH 7.5 and tested for PDE IV activity. […]
The inhibiting effect of the present compounds on recombinant human MNL phosphodiesterase PDE IV B was measured at different concentrations of the instant compounds.

By UniProt entry, the sequences of proteins in these tests, tags left out. Where a name states a change or a piece, a line headed by the entry shows the natural chain unless it says otherwise.
UniProt Q07343: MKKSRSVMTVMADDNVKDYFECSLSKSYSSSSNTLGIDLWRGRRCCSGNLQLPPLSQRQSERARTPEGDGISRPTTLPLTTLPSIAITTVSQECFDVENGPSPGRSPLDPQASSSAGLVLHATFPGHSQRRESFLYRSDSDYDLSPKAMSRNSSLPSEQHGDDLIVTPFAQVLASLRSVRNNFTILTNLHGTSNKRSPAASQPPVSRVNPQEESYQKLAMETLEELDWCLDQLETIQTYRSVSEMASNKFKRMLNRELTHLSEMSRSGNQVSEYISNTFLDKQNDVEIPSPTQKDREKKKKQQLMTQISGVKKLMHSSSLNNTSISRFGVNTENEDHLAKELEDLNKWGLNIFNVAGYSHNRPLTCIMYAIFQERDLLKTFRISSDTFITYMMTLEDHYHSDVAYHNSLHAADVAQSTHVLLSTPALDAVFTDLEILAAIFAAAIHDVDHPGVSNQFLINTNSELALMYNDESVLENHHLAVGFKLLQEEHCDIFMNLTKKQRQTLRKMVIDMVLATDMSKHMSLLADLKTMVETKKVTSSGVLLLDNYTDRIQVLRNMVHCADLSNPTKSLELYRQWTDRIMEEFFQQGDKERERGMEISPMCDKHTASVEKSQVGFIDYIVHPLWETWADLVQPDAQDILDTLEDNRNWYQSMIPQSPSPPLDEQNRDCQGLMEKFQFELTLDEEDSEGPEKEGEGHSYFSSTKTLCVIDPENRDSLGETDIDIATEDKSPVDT

A word on the IC50: it is the concentration that inhibits the measured activity by half.

For `COc1ccc(C(C)Cn2ccnc2NC#N)cc1OC1Cc2ccccc2C1` (single isomer, unassigned; (+)) [Compound 16, (+)-(A)-[1-[2-[3-[(2,3-dihydro-1H-inden-2-yl)oxy]-4-methoxy-phenyl]-propyl]-1H-imidazol-2-yl]cyanamide], the IC50 was 18 nM. As to `COc1ccc(C(C)Cn2ccnc2NC#N)cc1OC1Cc2ccccc2C1` (single isomer, unassigned; (-)) [Compound 17, (-)-(B)-[1-[2-[3-[(2,3-dihydro-1H-inden-2-yl)oxy]-4-methoxy-phenyl]propyl]-1H-imidazol-2-yl]cyanamide], the half-inhibitory concentration (IC50) came to 30 nM.

The record behind these values is patent US6051718A, “PDE IV inhibiting 2-cyanoiminoimidazole derivatives” (Janssen Pharmaceutica, N.V., priority 1996, dated 2000).
